Laboratory results as given in paper PMC11482831 (bioRxiv, 2024).

Sequences of proteins named here, by UniProt entry; tags and fusion partners are left off. A change or cut given only in a name is not applied to a line headed by its entry.
UniProt O60896: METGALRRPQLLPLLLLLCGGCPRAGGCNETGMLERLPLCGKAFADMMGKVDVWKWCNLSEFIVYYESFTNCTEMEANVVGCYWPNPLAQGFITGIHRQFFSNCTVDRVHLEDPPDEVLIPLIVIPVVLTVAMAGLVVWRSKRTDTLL

Tests used:
[1] = target: T1, AMY3R (HiBiT-CTR:mCitrine-RAMP3) (Homo sapiens, UniProt O60896+P30988); assay: CTR:RAMP cell surface proximity BRET assay, AMY3R; type: cell-based; conditions: 300 nM agonist, HEK293 cells, room temperature, 30 min, pH 7.4
T1 sequence (P30988 25-474): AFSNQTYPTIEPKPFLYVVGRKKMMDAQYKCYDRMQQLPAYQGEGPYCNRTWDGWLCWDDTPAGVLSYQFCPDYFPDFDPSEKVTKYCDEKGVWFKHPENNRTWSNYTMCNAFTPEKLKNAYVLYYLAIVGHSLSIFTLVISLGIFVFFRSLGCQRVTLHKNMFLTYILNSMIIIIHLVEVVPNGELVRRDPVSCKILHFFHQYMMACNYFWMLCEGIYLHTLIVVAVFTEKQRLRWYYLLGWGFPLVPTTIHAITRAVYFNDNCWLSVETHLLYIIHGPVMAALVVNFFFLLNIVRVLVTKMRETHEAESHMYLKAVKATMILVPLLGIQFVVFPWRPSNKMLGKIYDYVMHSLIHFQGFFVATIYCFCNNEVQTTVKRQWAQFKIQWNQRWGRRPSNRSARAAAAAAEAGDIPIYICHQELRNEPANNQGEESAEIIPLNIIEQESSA

AMY3R (CTR:RAMP3) = assay: Native PAGE mobility shift assay, single-point, AMY3R; type: biochemical, human; conditions: 10 μM agonist, no mGs, detergent-solubilized (LMNG/CHS), in-gel mCitrine fluorescence, qualitative, three replicates
AMY1R (CTR:RAMP1) = assay: Native PAGE mobility shift assay, single-point, AMY1R; type: biochemical, human; conditions: 10 μM agonist, no mGs, detergent-solubilized (LMNG/CHS), in-gel mCitrine fluorescence, qualitative, three replicates
[2] = tested on: AMY2R (HiBiT-CTR:mCitrine-RAMP2); assay: CTR:RAMP cell surface proximity BRET assay, AMY2R; type: cell-based, human; conditions: 300 nM agonist, HEK293 cells, room temperature, 30 min, pH 7.4

Q: Which “Change in CTR:RAMP proximity BRET signal, real-time” value [1] does the source give for calcitonin gene-related peptide (αCGRP) here?
A: The value was “no effect”.

Q: And the “Change of subunit distribution (AMY3R heterodimer / free RAMP3)” value (AMY3R (CTR:RAMP3))?
A: The value was “appeared to be unchanged”.

Q: And the “Change of subunit distribution (free RAMP1 / AMY1R heterodimer)” value (AMY1R (CTR:RAMP1))?
A: The value was “reduced free RAMP1 and increased the amount of the AMY1R heterodimer”.

Q: What about the “Change in CTR:RAMP proximity BRET signal, real-time” value [2] of the same substance?
A: Its value is “increased the BRET signal”.
